Experimental data from publication PMC12091851, “Replacing a Cereblon Ligand by a DDB1 and CUL4 Associated Factor 11 (DCAF11) Recruiter Converts a Selective Histone Deacetylase 6 PROTAC into a Pan‐Degrader” (Chemmedchem, 2025).

Test system: MDA-MB-231 cells
Assay: Clonogenic growth assay
Assay type: cell-based, human
Conditions: 10 μM for 48 h, nine days of growth

O=C(CCCCCCNC(=O)c1ccc(NC(=O)CCCCCCCNC(=O)COc2cccc3c2C(=O)N(C2CCC(=O)NC2=O)C3=O)cc1)NO (stereo not shown) [Compound A6]
reduction of colonies (clonogenic growth): did not result in a significant reduction in clonogenic growth
